## CycPeptMPDB entries from one study

Collected by the curators of CycPeptMPDB (Li et al. 2023) from Townsend et al. 2020, doi:10.26434/chemrxiv.13335941.v1.

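The data file gives no further conditions (lipid, pH, time, direction or concentration), and values from different papers need not be comparable. The list need not hold all peptides of the study. Peptides that the database sets to -10, its floor, are left out.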

PAMPA measures passive passage through an artificial lipid membrane. Permeability is in 10^-6 cm/s, converted from the database's log10 values; higher is more permeable.

PAMPA (10^-6 cm/s)	SMILES
6.6	CC(C)C[C@@H]1NC(=O)[C@@H](CC(C)C)NC(=O)[C@H](C)N(C)C(=O)[C@H]2CCCN2C(=O)[C@H](Cc2ccccc2)NC(=O)[C@@H](CC(C)C)N(C)C(=O)[C@H]2CCCN2C1=O
5	CCCN1CC(=O)N(C)[C@H](CC(C)C)C(=O)N(Cc2ccccc2)CC(=O)N2CCC[C@H]2C(=O)N(C)[C@@H](CC(C)C)C(=O)N[C@@H](Cc2ccccc2)C(=O)N2CCC[C@H]2C1=O
6	CC(C)C[C@@H]1C(=O)N[C@@H](Cc2ccccc2)C(=O)N2CCC[C@H]2C(=O)N(C)[C@@H](C)C(=O)N(Cc2ccccc2)CC(=O)N[C@H](CC(C)C)C(=O)N2CCC[C@H]2C(=O)N1C
7.2	CC(C)C[C@@H]1NC(=O)[C@@H](C)N(C)C(=O)[C@H](Cc2ccccc2)NC(=O)CN(Cc2ccccc2)C(=O)[C@@H]2CCCN2C(=O)[C@@H](CC(C)C)N(C)C1=O
3.3	CC(C)C[C@H]1NC(=O)[C@H](CC(C)C)N(C)C(=O)[C@@H](C)NC(=O)[C@H](Cc2ccccc2)NC(=O)CN(Cc2ccccc2)C(=O)[C@H]2CCCN2C1=O
3.4	CC(C)C[C@@H]1C(=O)N[C@@H](Cc2ccccc2)C(=O)N2CCC[C@H]2C(=O)N(C)[C@@H](C)C(=O)N[C@H](CC(C)C)C(=O)N(C)[C@@H](CC(C)C)C(=O)N2CCC[C@@H]2C(=O)N1C
4.2	CCCN1CC(=O)N(C)[C@H](CC(C)C)C(=O)N(C)[C@@H](CC(C)C)C(=O)N2CCC[C@@H]2C(=O)N(Cc2ccccc2)CC(=O)N[C@@H](Cc2ccccc2)C(=O)N2CCC[C@H]2C1=O
0.87	CC(C)C[C@@H]1NC(=O)[C@H](C)N(C)C(=O)[C@H](Cc2ccccc2)NC(=O)[C@@H](CC(C)C)NC(=O)[C@H]2CCCN2C(=O)[C@H](CC(C)C)NC1=O
1.9	CC(C)C[C@@H]1NC(=O)[C@H](C)NC(=O)[C@H](Cc2ccccc2)NC(=O)[C@@H](CC(C)C)N(C)C(=O)[C@@H]2CCCN2C(=O)[C@@H](CC(C)C)N(C)C1=O
6	CC(C)C[C@@H]1C(=O)N[C@H](CC(C)C)C(=O)N2CCC[C@H]2C(=O)N(Cc2ccccc2)CC(=O)N[C@@H](Cc2ccccc2)C(=O)N[C@@H](C)C(=O)N1C
1.8	CC(C)C[C@@H]1NC(=O)[C@H]2CCCN2C(=O)[C@@H](CC(C)C)N(C)C(=O)[C@@H](CC(C)C)NC(=O)C[C@H](Cc2ccccc2)NC(=O)[C@H]2CCCN2C(=O)[C@H](Cc2ccccc2)NC1=O
2.1	CC(C)C[C@H]1NC(=O)CN(Cc2ccccc2)C(=O)[C@@H](C)N(C)C(=O)[C@@H]2CCCN2C(=O)[C@H](Cc2ccccc2)NC(=O)CN(Cc2ccccc2)C(=O)[C@@H]2CCCN2C1=O
4.7	CCCN1CC(=O)N(C)[C@H](CC(C)C)C(=O)N[C@@H](Cc2ccccc2)CC(=O)N2CCC[C@H]2C(=O)N(C)[C@@H](CC(C)C)C(=O)N[C@@H](Cc2ccccc2)C(=O)N2CCC[C@H]2C1=O
0.66	CC(C)C[C@@H]1NC(=O)[C@H](C)NC(=O)[C@@H]2CCCN2C(=O)[C@H](Cc2ccccc2)NC(=O)[C@@H](CC(C)C)NC(=O)[C@@H]2CCCN2C(=O)[C@H](CC(C)C)NC1=O
0.36	CC(C)C[C@H]1NC(=O)[C@@H](C)N(C)C(=O)[C@H]2CCCN2C(=O)[C@H](Cc2ccccc2)NC(=O)[C@H](CC(C)C)N(C)C(=O)[C@H]2CCCN2C(=O)C[C@H](Cc2ccccc2)NC1=O
1.5	CC(C)C[C@@H]1NC(=O)[C@@H](CC(C)C)NC(=O)C[C@H](Cc2ccccc2)NC(=O)[C@H](Cc2ccccc2)NC(=O)CN(Cc2ccccc2)C(=O)[C@@H]2CCCN2C1=O
10	CC(C)C[C@H]1NC(=O)[C@H](C)N(C)C(=O)[C@H](Cc2ccccc2)NC(=O)CN(Cc2ccccc2)C(=O)[C@@H]2CCCN2C(=O)[C@H](CC(C)C)N(C)C1=O

The 2 highest values of PAMPA among the entries above:

SMILES	PAMPA (10^-6 cm/s)
CC(C)C[C@H]1NC(=O)[C@H](C)N(C)C(=O)[C@H](Cc2ccccc2)NC(=O)CN(Cc2ccccc2)C(=O)[C@@H]2CCCN2C(=O)[C@H](CC(C)C)N(C)C1=O	10
CC(C)C[C@@H]1NC(=O)[C@@H](C)N(C)C(=O)[C@H](Cc2ccccc2)NC(=O)CN(Cc2ccccc2)C(=O)[C@@H]2CCCN2C(=O)[C@@H](CC(C)C)N(C)C1=O	7.2